# Laboratory results as given in PubChem BioAssay AID598 (SRMLSC, 2007).
# Only a part is listed here, and it is no random draw. Active and inactive are the calls of the source.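 How the source made its calls: active means viability at or below 40%; inactive means viability above 40%.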
# Assay: proliferation blockers of H69AR lung cancer cells, primary screen, cell-based, human, 86K library (AID 598);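 further: multidrug resistant small cell line overexpressing MRP-1 efflux transporter; 100% = mean luminescence of untreated control wells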
# Conditions: H69AR lung tumor viability, ATP luminescence, 72 h; at 10 µM; hits give low values
row,SMILES,viability
1,ClCCSc1nnc(-c2cccnc2)o1,inactive: 93.1%
2,O=C(OC1CN2CCC1CC2)C12CC3CC(CC(C3)C1)C2 (configuration not stated),inactive: 96.3%
3,CCC(C)N(CC(C)C)C(=S)SC(NC(C)=O)C(Cl)(Cl)Cl (configuration not stated),inactive: 70.8%
4,COP1(=S)c2c(C)nn(CCC#N)c2N=C(c2ccc(F)cc2)N1C (configuration not stated),inactive: 62%
5,O=C(COc1ccccc1)OC1CN2CCC1CC2 (configuration not stated),inactive: 104%
6,O=P1(Nc2ncccn2)COc2ccccc2OC1,inactive: 94.2%
7,Cc1ccc(OCC(=O)OC2CN3CCC2CC3)cc1 (configuration not stated),inactive: 94.1%
8,O=P1(Nc2ccc(Br)cn2)COc2ccccc2OC1,inactive: 98.3%
9,Cc1nn(-c2ccccc2)c2c1P(=O)(N1CCOCC1)N(C)C(c1ccccc1)=N2 (configuration not stated),inactive: 87.8%
10,CC1(CBr)Cn2c(nc3ccccc3c2=O)S1 (configuration not stated),inactive: 87.7%
11,O=P1(Nc2ccccn2)COc2ccccc2OC1,inactive: 69.6%
12,Clc1n[nH]nc1-c1nn[nH][15n]1,inactive: 105%
13,Cc1cccc(OCC(=O)OC2CN3CCC2CC3)c1 (configuration not stated),inactive: 95.3%
14,CCOP1(=S)c2c(C)nn(CCC#N)c2N=C(c2ccc(F)cc2)N1C (configuration not stated),inactive: 66.7%
15,CCOP1(=S)c2c(C)nn(CCC#N)c2N=C(c2ccccc2F)N1C (configuration not stated),inactive: 68.9%
16,COC(=O)c1cc2c(s1)N=C(c1ccccc1)N(C)P2(=O)N1CCOCC1 (configuration not stated),inactive: 85.2%
17,O=P1(Nc2nc3ccc(Cl)cc3s2)COc2ccccc2O1 (configuration not stated),inactive: 103%
18,O=P(Nc1nccs1)(c1ccccc1)c1ccccc1,inactive: 88.4%
19,c1nnnn1CCn1cnnn1,inactive: 89.2%
20,O=C(OC1CN2CCC1CC2)c1cccc(Cl)c1 (configuration not stated),inactive: 95.6%
21,CC1CCN(C(=O)Oc2c(Cl)cc(Cl)c3cccnc23)CC1,inactive: 83.9%
22,CCc1nc2c(n1)c1c(non1O)c1c2no[n+]1[O-],active: 2.17%
23,O=[N+]([O-])c1cccc2n[nH]nc12,inactive: 97.6%
24,Oc1ccccc1CNc1ccccn1,inactive: 98.8%
25,Cc1c2non([O-])c-2c(C)[n+](=O)[n+]1[O-],active: 0.46%
26,CN1CCCC(OC(=O)C(c2ccccc2)c2ccccc2)C1 (configuration not stated),inactive: 79.2%
27,CCOP(=O)(Nc1ccccc1)OCC,inactive: 94.6%
